This test addresses T1, human orexin-2 receptor (Homo sapiens, UniProt O43614).
T1 construct: non-recombinant cell lines that produce the orexin-2 receptor may be utilized; host or cells: PFSK-1 cells (human primitive neuroectodermal tumor line)
In words: Fluorescence (Fluo-3, FLIPR) assay of intracellular calcium ion in PFSK-1 cells. The class given is cell-based. The note with it: agonist EC50 for intracellular Ca++ increase in PFSK-1 cells, determined on the same plate as the inhibitor of that row; read-out: Orexin B EC50. As for the experimental part:
Antagonism is analyzed by calculating KB and pKB values for compounds found to inhibit increases in intracellular Ca^++ concentrations in the cells. This is accomplished by determining the EC50 of an orexin agonist and comparing the IC50 values determined from dilutions of antagonist compound(s) on a single multi-well plate of PFSK-1 cells loaded with Fluo-3 AM or a similar dye. In this case, all of the wells, except those used to determine the agonist's EC50, are given the same concentration of the orexin agonist.
The KB is then determined after Cheng and Prusoff (1973), Biochem. Pharmacol. 22: 3099-3108, using the formula below: KB=IC50/(1+({agonist}/EC50)) […]
Following the incubation step described in Example 2, changes in intracellular calcium concentrations were measured using the FLIPR instrument (Molecular Probes, Eugene, Oreg.). […] Data were analyzed using the maximum signal minus the minimum signal for each well, in arbitrary fluorescence units. […]
Antagonism was analyzed by calculating KB and pKB values for compounds found to inhibit increases in intracellular Ca^++ concentrations in the cells. This was accomplished by determining the EC50 of an orexin agonist and comparing the IC50 values determined from dilutions of antagonist compound(s) on a single multi-well plate of PFSK-1 cells loaded with Fluo-3 AM.
The KB was then determined using the formula of Cheng and Prusoff. […]
In general terms: Calcium flux is commonly read through the fluorescence of an indicator in the cells.

The chains behind the UniProt entries cited, without tags or fusion partners.
UniProt O43614, whole entry: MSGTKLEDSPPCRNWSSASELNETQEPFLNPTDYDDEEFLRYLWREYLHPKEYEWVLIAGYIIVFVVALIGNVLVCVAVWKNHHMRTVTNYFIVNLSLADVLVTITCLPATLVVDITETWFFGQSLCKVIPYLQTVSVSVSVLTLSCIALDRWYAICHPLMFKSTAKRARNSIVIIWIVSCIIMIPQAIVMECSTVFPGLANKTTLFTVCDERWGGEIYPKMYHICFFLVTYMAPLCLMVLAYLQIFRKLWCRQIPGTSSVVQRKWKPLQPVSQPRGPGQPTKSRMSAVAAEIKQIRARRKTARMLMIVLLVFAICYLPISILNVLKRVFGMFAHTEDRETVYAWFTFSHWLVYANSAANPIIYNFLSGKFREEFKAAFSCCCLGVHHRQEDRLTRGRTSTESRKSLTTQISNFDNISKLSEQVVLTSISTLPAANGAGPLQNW

Broadly, the EC50 is the concentration giving half of the maximal effect. Turning to “Orexin B: orexin-2 receptor ligand; peptide agonist, cleavage product of pre-pro orexin”, the EC50 amounted to 13 nM.

The values are drawn from US7618786B2, “Method for identifying modulators of human orexin-2 receptor” (Janssen Pharmaceutica N.V., priority 2002, dated 2009).
